# Membrane permeability of cyclic peptides

Collected by the curators of CycPeptMPDB (Li et al. 2023) from Kelly et al. 2021, doi:10.1021/jacs.0c06115.

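Conditions beyond the assay type are not listed; see the original paper. Other peptides of the study may be missing here. Entries at the database's floor value (log10 P of -10) are not listed.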

PAMPA measures passive passage through an artificial lipid membrane.
Permeability is given as log10 of P in cm/s; higher (less negative) is more permeable.

| SMILES | PAMPA (log10 cm/s) |
|---|---|
| CC(=O)N1CCC[C@@H]1C(=O)N(C)[C@H](CC(C)C)C(=O)N[C@@H]1C(=O)N(C)[C@@H](CC(C)C)C(=O)N(C)[C@H](CC(C)C)C(=O)N[C@H](CC(C)C)C(=O)N(C)[C@@H](C)C(=O)N[C@H](CC(C)C)C(=O)N2CCC[C@@H]2C(=O)O[C@@H]1C | -6.06 |
| CC(=O)N1CCC[C@H]1C(=O)N(C)[C@@H](CC(C)C)C(=O)N[C@@H]1C(=O)N[C@@H](CC(C)C)C(=O)N[C@H](CC(C)C)C(=O)N(C)[C@H](CC(C)C)C(=O)N(C)[C@@H](C)C(=O)N[C@@H](CC(C)C)C(=O)N2CCC[C@@H]2C(=O)O[C@@H]1C | -5.94 |
| CC(=O)N1CCC[C@H]1C(=O)N[C@@H]1C(=O)N[C@H](CC(C)C)C(=O)N(C)[C@H](CC(C)C)C(=O)N[C@H](CC(C)C)C(=O)N[C@H](CC(C)C)C(=O)N(C)[C@@H](C)C(=O)N[C@@H](CC(C)C)C(=O)N2CCC[C@@H]2C(=O)O[C@@H]1C | -4.88 |
| CC(=O)N1CCC[C@H]1C(=O)N[C@@H]1C(=O)N[C@H](CC(C)C)C(=O)N(C)[C@@H](CC(C)C)C(=O)N[C@H](CC(C)C)C(=O)N(C)[C@@H](CC(C)C)C(=O)N(C)[C@@H](C)C(=O)N[C@@H](CC(C)C)C(=O)N2CCC[C@@H]2C(=O)O[C@@H]1C | -5.84 |
| CC(=O)N1CCC[C@@H]1C(=O)N(C)[C@@H](CC(C)C)C(=O)N[C@@H]1C(=O)N[C@H](CC(C)C)C(=O)N(C)[C@H](CC(C)C)C(=O)N(C)[C@H](CC(C)C)C(=O)N(C)[C@H](C)C(=O)N[C@@H](CC(C)C)C(=O)N2CCC[C@H]2C(=O)O[C@@H]1C | -5.50 |
| CC(=O)N[C@@H]1C(=O)N2CCC[C@H]2C(=O)N(C)[C@H](CC(C)C)C(=O)N(C)[C@@H](CC(C)C)C(=O)N(C)[C@H](CC(C)C)C(=O)N(C)[C@H](CC(C)C)C(=O)N(C)[C@H](C)C(=O)N[C@@H](CC(C)C)C(=O)N2CCC[C@@H]2C(=O)O[C@@H]1C | -4.98 |
| CC(=O)N1CCC[C@H]1C(=O)N[C@@H]1C(=O)N[C@H](CC(C)C)C(=O)N[C@H](CC(C)C)C(=O)N(C)[C@@H](CC(C)C)C(=O)N[C@@H](CC(C)C)C(=O)N[C@H](C)C(=O)N[C@@H](CC(C)C)C(=O)N2CCC[C@@H]2C(=O)O[C@@H]1C | -5.41 |
| CC(=O)N1CCC[C@@H]1C(=O)N(C)[C@@H](CC(C)C)C(=O)N[C@@H]1C(=O)N(C)[C@H](CC(C)C)C(=O)N(C)[C@@H](CC(C)C)C(=O)N[C@H](CC(C)C)C(=O)N(C)[C@@H](C)C(=O)N[C@@H](CC(C)C)C(=O)N2CCC[C@@H]2C(=O)O[C@@H]1C | -5.58 |
| CC(=O)N1CCC[C@H]1C(=O)N(C)[C@H](CC(C)C)C(=O)N[C@@H]1C(=O)N[C@@H](CC(C)C)C(=O)N(C)[C@H](CC(C)C)C(=O)N(C)[C@H](CC(C)C)C(=O)N(C)[C@H](C)C(=O)N[C@@H](CC(C)C)C(=O)N2CCC[C@@H]2C(=O)O[C@@H]1C | -5.58 |
| CC(=O)N1CCC[C@@H]1C(=O)N(C)[C@H](CC(C)C)C(=O)N[C@@H]1C(=O)N(C)[C@@H](CC(C)C)C(=O)N(C)[C@@H](CC(C)C)C(=O)N[C@@H](CC(C)C)C(=O)N(C)[C@H](C)C(=O)N[C@@H](CC(C)C)C(=O)N2CCC[C@@H]2C(=O)O[C@@H]1C | -5.43 |
| CC(=O)N1CCC[C@H]1C(=O)N[C@@H]1C(=O)N(C)[C@H](CC(C)C)C(=O)N[C@@H](CC(C)C)C(=O)N[C@@H](CC(C)C)C(=O)N[C@H](CC(C)C)C(=O)N[C@@H](C)C(=O)N[C@@H](CC(C)C)C(=O)N2CCC[C@@H]2C(=O)O[C@@H]1C | -6.77 |
| CC(=O)N1CCC[C@@H]1C(=O)N(C)[C@H](CC(C)C)C(=O)N[C@@H]1C(=O)N[C@@H](CC(C)C)C(=O)N(C)[C@H](CC(C)C)C(=O)N[C@H](CC(C)C)C(=O)N(C)[C@H](C)C(=O)N[C@H](CC(C)C)C(=O)N2CCC[C@H]2C(=O)O[C@@H]1C | -6.49 |
| CC(=O)N1CCC[C@@H]1C(=O)N(C)[C@H](CC(C)C)C(=O)N[C@@H]1C(=O)N[C@H](CC(C)C)C(=O)N(C)[C@H](CC(C)C)C(=O)N[C@@H](CC(C)C)C(=O)N(C)[C@@H](C)C(=O)N[C@H](CC(C)C)C(=O)N2CCC[C@H]2C(=O)O[C@@H]1C | -5.12 |
| CC(=O)N1CCC[C@H]1C(=O)N(C)[C@H](CC(C)C)C(=O)N[C@@H]1C(=O)N[C@@H](CC(C)C)C(=O)N[C@H](CC(C)C)C(=O)N(C)[C@@H](CC(C)C)C(=O)N[C@@H](C)C(=O)N[C@@H](CC(C)C)C(=O)N2CCC[C@H]2C(=O)O[C@@H]1C | -6.45 |